Reference: patent US7122321B2, “High throughput method for functionally classifying proteins identified using a genomics approach” (Johnson & Johnson Pharmaceutical Research & Development, …, priority 1997, dated 2006)

Experiments:
human α-thrombin (human) [1] = molecular target: human α-thrombin (human) (UniProt P00734); test: microplate thermal shift assay, Kd at Tm calculated with equation (1); hirudin peptide alone, 50 µM
human α-thrombin (human) [2] = molecular target: human α-thrombin (human) (UniProt P00734); test: microplate thermal shift assay, Kd at 298 K estimated with equation (3), binding enthalpy assumed -10.0 kcal/mole; hirudin peptide alone

Substance: Hirugen (hirudin 53-64) (Sigma) (from UniProt P09945 60-71) (peptide)
- pKd (human α-thrombin (human) [1]): 6.73
- pKd (human α-thrombin (human) [2]): 7.64

pKd: −log10 of the molar value.
